Reference: patent US6387388B1, “Pesticidal formulation” (Merck & Co., Inc., priority 1995, dated 2002)

Test: Solubility in water

## benzoate salt of 4″-deoxy-4″-epi-methylamino avermectin B1a/B1b [emamectin benzoate]
  solubility in water: about 100 ppm
